Assay results from patent publication US20230078764A1 (Yumanity Therapeutics, Inc., priority 2019, published 2023).

Sequences of proteins named here, by UniProt entry; tags and fusion partners are left off.
UniProt Q86SK9, whole entry: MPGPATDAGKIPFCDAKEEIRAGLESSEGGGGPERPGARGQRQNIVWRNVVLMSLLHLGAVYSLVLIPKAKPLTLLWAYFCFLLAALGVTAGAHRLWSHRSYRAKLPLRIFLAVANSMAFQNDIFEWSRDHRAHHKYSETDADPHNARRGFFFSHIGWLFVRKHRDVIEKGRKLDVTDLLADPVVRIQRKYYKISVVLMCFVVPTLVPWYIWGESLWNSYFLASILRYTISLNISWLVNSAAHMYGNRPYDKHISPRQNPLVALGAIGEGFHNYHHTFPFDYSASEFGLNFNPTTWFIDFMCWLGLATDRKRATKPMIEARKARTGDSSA

Target: human SCD5 (Homo sapiens, UniProt Q86SK9)
Assay: Growth inhibition of yeast strain expressing human SCD5 as sole desaturase (OLE1 deleted), OD600 readout
Assay type: cell-based
Conditions: read-out: SCD5 IC50, growth (OD600) after 40 h at 30° C.

CN1N=C(C(=O)Nc2ccc(Cc3ccc(Cl)c(F)c3)cn2)CCC1=O [Compound 11, N-(5-(4-chloro-3-fluorobenzyl)pyridin-2-yl)-1-methyl-6-oxo-1,4,5,6-tetrahydropyridazine-3-carboxamide]
IC50: 20 nM
